From patent US20250325688A1, “ANTIBODY-DRUG CONJUGATE CONTAINING PROTEIN DEGRADATION AGENT BIOACTIVE COMPOUND, METHOD FOR PREPARING SAME, AND USE THEREOF” (Medilink Therapeutics (Suzhou) Co., Ltd., priority 2022, published 2025)

T1: monkey B7H3-4IgG-his (monkey)
T1 chain: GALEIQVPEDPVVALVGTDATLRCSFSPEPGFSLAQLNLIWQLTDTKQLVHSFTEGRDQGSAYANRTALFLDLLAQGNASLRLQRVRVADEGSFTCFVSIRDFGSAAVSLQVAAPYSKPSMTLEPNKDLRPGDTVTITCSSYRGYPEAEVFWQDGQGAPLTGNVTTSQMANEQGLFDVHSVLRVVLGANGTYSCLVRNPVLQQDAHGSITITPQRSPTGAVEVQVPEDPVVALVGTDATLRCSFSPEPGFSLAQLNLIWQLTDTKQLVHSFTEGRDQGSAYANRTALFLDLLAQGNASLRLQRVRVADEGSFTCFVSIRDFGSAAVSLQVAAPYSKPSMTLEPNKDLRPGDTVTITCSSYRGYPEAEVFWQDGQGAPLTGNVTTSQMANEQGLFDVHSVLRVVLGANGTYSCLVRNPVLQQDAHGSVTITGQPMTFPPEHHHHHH

T2: B7H3 on tumor cells (MCF-7, A549, PC-3) (human, UniProt Q5ZPR3 29-534)
T2 construct: whole, on cells; also called B7H3 proteins expressed in solid tumor cells
T2 sequence (looked up): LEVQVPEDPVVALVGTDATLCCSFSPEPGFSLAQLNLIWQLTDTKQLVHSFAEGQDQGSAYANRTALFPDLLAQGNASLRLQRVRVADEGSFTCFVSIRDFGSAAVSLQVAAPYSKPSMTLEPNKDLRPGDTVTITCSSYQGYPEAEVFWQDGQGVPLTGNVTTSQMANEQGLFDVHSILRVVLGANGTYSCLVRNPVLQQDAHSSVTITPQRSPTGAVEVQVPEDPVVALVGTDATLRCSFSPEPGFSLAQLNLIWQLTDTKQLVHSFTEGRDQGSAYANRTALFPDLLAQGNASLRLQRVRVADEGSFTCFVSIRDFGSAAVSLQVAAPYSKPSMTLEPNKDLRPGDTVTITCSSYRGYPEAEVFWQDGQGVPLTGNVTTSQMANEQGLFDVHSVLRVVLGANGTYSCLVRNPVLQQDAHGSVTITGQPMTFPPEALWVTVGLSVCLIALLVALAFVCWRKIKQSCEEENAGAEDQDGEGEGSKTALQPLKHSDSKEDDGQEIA

T3: human B7H3-4IgG-his (human, UniProt Q5ZPR3 27-461)
T3 construct: range 27-461; Recombinant antigen expressed in HEK293F; also called human B7H3-4IgG-His protein
T3 sequence: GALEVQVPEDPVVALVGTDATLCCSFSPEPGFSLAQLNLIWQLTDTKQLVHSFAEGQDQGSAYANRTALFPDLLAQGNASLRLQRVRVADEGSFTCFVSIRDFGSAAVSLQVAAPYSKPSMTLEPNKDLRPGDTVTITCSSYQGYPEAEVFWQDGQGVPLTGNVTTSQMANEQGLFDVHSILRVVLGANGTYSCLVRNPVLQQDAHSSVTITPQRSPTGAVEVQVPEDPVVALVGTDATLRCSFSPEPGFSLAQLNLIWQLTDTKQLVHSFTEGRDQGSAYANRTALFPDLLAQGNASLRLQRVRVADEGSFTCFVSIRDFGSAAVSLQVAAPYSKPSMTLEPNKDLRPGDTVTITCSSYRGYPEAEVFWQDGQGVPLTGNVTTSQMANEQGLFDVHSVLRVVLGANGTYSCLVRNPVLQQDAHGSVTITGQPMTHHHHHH


Tests used:
monkey B7H3-4IgG-his = biological target: T1, monkey B7H3-4IgG-his; assay: ELISA, coated monkey B7H3-4IgG-his, anti-human Fc-HRP detection
Procedure: (§1) The affinity of the B7H3 fully human antibodies for human B7H3-4IgG-his and monkey B7H3-4IgG-his proteins was assayed by an ELISA method. The specific experimental procedures are as follows: the human B7H3-4IgG-his or monkey B7H3-4IgG-his protein was diluted with a carbonate buffer with a pH value of 9.6 to a final concentration of 1 g/mL and added to 96-well enzyme-labeled wells at 100 μL/well for coating at 4° C. overnight; the coating solution was discarded, the plate was washed once with PBST, 100 μL of PBS (containing 2% BSA) was added to each well, and the plate was blocked at 37° C. for 1 h; then 100 μL of the B7H3 fully human antibody diluted with PBS (containing 2% BSA) (starting at 10 g, 3-fold dilution in duplicate) was added to each well, and the plate was incubated at 37° C. for 2 h; the plate was washed 3 times with PBST, a horseradish peroxidase-labeled anti-human Fc antibody (diluted with PBS at 1:10000) was added at 100 µL/well, and the system was reacted at 37° C. for 1 h; the plate was washed 5 times with PBST. TMB color development solution was added for color development at 100 μL/well at 37° C. for 7 min, and a stop solution was added to stop the reaction at 50 µL/well. The absorbance was measured at 450 nm. EC50 values were calculated from the original data.

[1] = biological target: T2, B7H3 on tumor cells (MCF-7, A549, PC-3); assay: flow cytometry on MCF-7 tumor cells
Procedure: (§2) B7H3 proteins are highly expressed in various solid tumor cells. The affinity of the B7H3 fully human antibody for tumor cells was assayed by a FACS method. […] The average fluorescence signal values were measured using a Beckman flow cytometer. The EC50 values were calculated from the average fluorescence signal values.

[2] = biological target: T2, B7H3 on tumor cells (MCF-7, A549, PC-3); assay: flow cytometry on A549 tumor cells
Procedure: as §2

human B7H3-4IgG-his = biological target: T3, human B7H3-4IgG-his; assay: ELISA, coated human B7H3-4IgG-his, anti-human Fc-HRP detection
Procedure: as §1

[3] = biological target: T2, B7H3 on tumor cells (MCF-7, A549, PC-3); assay: flow cytometry on PC-3 tumor cells
Procedure: as §2

Row | Binder | EC50 (monkey B7H3-4IgG-his) [nM] | EC50 [1] [nM] | EC50 [2] [nM] | EC50 (human B7H3-4IgG-his) [nM] | EC50 [3] [nM]
1 | anti-B7H3 antibody 1D1-01 (antibody, V domains shown) VH: EGQLVESGGGLVQPGGSLRLSCAASGFTISSYWMNWVRQAPGKGLEWVANIKQDGSEKYYVDSVQGRFTISRDNAKNSLYLQMNSLRAEDTAVYYCARRMYSSGWYWGAFDMWGQGTMVTVSS VL: EIVLTQSPGTLSLSPGERATLSCRASQSVSSIYLAWNQQKPGQAPRLLIYGTFKRATGIPDRFSGSGSGTDFTLTISSLEPEDFAVYYCQQYDTSSITFGQGTRLEIKR | 0.0358 | 0.524 | 0.322 | 0.0436 | 
2 | anti-B7H3 antibody 2E3-02 (antibody, V domains shown) VH: EVQLLESGGGLVQPGGSLRLSCAASGFTFSSYAMNWVRQAPGKGLEWVSGISGSGGSTYYADSVQGRFTISRDNSKNTLYLQMNSLRAEDTAVYYCAKARSGYDYFFDYWGQGTLVTVSS VL: EIVLTQSPGTLSLSPGERATLSCRASQRISSSFLAWYQQKPGQAPSLLIYGASSRATGIPDRFSGSGSGTDFTLTISSLEPEDFAVFYCQQYSNSPLTFGGGTKVEIKR | 0.0277 | 0.398 | 0.15 | 0.0175 | 0.063
